Columns and labels:
[1] = microsome stability (mouse)
[2] = microsome stability (rat)
[3] = microsome stability (human)
[4] = biological target: LYN A (Homo sapiens, UniProt P07948); experiment: Invitrogen kinase assay LYN A; conditions: read-out: IC50 LYN A
[5] = biological target: MAPK14 (p38 alpha) Direct (Homo sapiens, UniProt Q16539); experiment: Invitrogen kinase assay MAPK14 (p38 alpha) Direct; conditions: read-out: IC50 MAPK14 (p38 alpha) Direct
[6] = biological target: MAP4K1 (HPK1) (Homo sapiens, UniProt Q92918); experiment: Invitrogen kinase assay MAP4K1 (HPK1); conditions: read-out: IC50 MAP4K1 (HPK1)
[7] = biological target: ABL1 (Homo sapiens, UniProt P00519); experiment: Invitrogen kinase assay ABL1; conditions: read-out: IC50 ABL1
[8] = biological target: ABL2 (Arg) (Homo sapiens, UniProt P42684); experiment: Invitrogen kinase assay ABL2 (Arg); conditions: read-out: IC50 ABL2 (Arg)
[9] = biological target: SRC (Homo sapiens, UniProt P12931); experiment: Invitrogen kinase assay SRC; conditions: read-out: IC50 SRC
[10] = biological target: LCK (Homo sapiens, UniProt P06239); experiment: Invitrogen kinase assay LCK; conditions: read-out: IC50 LCK
[11] = biological target: HCK (Homo sapiens, UniProt P08631); experiment: Invitrogen kinase assay HCK; conditions: read-out: IC50 HCK
[12] = biological target: TAOK3 (JIK) (Homo sapiens, UniProt Q9H2K8); experiment: Invitrogen kinase assay TAOK3 (JIK); conditions: read-out: IC50 TAOK3 (JIK)
[13] = biological target: TAOK2 (TAO1) (Homo sapiens, UniProt Q9UL54); experiment: Invitrogen kinase assay TAOK2 (TAO1); conditions: read-out: IC50 TAOK2 (TAO1)
[14] = biological target: FYN (Homo sapiens, UniProt P06241); experiment: Invitrogen kinase assay FYN; conditions: read-out: IC50 FYN
[15] = biological target: TAOK1 (Homo sapiens, UniProt Q7L7X3); experiment: Invitrogen kinase assay TAOK1; conditions: read-out: IC50 TAOK1

By UniProt entry, the sequences of proteins in these tests, tags left out.
UniProt P07948, whole entry: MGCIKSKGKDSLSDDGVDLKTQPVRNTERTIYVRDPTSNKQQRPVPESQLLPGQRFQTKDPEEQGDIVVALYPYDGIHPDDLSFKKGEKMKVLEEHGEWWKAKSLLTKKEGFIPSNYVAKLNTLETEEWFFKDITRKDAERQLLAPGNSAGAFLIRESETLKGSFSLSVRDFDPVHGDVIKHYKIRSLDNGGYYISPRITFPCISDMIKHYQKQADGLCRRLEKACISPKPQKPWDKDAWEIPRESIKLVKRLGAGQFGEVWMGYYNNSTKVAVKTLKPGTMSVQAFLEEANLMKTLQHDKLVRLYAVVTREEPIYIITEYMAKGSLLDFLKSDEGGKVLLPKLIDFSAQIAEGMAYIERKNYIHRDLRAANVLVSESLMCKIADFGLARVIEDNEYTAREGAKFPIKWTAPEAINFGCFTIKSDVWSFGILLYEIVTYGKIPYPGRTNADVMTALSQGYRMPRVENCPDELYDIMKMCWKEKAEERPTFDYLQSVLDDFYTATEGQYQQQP
UniProt Q16539, whole entry: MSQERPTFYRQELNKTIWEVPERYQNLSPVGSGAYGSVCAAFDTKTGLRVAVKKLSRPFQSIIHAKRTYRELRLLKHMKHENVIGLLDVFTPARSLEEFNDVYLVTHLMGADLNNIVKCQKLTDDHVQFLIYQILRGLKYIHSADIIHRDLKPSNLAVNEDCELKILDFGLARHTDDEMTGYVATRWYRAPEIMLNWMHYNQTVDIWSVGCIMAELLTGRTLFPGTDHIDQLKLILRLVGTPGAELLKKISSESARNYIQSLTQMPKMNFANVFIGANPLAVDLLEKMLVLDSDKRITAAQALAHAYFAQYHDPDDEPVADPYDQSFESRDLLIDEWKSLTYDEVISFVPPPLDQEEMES
UniProt P00519, whole entry: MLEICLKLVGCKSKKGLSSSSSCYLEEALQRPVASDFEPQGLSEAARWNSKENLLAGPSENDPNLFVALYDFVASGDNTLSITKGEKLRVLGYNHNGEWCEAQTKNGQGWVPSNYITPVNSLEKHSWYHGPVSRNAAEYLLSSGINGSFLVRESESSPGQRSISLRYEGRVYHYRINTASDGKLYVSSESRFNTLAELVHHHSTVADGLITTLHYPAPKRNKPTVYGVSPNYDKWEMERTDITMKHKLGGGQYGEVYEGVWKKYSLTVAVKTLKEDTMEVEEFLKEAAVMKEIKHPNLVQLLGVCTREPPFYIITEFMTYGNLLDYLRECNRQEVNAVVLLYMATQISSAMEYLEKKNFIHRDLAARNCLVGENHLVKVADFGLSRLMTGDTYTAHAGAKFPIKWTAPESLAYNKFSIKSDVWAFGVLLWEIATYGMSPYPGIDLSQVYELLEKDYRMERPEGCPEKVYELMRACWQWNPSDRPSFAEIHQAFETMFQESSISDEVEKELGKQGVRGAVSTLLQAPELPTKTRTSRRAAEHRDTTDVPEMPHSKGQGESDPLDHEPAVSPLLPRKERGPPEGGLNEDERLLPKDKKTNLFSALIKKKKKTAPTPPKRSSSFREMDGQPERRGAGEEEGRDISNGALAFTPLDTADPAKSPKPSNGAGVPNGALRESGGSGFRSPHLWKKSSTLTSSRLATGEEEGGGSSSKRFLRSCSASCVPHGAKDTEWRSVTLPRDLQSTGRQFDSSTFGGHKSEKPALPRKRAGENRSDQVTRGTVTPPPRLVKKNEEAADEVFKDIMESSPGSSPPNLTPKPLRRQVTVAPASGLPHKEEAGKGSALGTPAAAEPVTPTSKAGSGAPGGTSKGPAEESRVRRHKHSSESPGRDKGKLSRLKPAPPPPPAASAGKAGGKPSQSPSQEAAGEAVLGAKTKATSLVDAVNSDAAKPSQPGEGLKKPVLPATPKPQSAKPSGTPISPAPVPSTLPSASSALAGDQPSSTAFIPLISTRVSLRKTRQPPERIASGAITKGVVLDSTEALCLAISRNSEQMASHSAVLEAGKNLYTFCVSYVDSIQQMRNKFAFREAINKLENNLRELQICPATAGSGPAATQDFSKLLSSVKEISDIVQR
UniProt P42684, whole entry: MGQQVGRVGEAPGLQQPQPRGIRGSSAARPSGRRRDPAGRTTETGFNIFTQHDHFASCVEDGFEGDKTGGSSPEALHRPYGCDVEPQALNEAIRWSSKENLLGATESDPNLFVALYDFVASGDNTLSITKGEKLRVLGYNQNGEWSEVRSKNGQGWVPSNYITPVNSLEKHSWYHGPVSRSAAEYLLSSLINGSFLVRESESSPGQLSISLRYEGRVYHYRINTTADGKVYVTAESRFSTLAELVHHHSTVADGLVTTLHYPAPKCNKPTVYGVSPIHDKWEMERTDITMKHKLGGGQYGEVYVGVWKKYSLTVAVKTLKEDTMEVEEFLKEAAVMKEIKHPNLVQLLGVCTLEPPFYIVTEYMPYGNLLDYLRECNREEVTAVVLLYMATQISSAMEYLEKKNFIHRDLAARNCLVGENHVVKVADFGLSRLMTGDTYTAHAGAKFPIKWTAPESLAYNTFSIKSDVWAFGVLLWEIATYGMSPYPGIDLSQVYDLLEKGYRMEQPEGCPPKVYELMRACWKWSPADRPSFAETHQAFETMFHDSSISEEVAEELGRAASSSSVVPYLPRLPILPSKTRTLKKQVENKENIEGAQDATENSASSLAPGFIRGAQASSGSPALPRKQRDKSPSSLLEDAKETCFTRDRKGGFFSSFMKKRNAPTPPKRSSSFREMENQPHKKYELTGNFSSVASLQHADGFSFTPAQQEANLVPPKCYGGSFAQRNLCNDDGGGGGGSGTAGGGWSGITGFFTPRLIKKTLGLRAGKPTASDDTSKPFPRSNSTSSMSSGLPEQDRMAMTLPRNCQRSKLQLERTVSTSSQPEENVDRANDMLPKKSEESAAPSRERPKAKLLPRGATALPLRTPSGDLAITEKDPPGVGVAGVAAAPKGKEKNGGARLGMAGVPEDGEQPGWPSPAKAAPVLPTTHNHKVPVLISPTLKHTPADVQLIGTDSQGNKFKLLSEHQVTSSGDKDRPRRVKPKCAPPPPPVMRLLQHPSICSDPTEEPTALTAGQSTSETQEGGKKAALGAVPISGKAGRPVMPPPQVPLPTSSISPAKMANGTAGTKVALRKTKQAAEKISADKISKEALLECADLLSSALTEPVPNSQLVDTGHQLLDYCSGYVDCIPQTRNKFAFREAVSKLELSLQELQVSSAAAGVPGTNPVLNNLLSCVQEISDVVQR
UniProt P12931, whole entry: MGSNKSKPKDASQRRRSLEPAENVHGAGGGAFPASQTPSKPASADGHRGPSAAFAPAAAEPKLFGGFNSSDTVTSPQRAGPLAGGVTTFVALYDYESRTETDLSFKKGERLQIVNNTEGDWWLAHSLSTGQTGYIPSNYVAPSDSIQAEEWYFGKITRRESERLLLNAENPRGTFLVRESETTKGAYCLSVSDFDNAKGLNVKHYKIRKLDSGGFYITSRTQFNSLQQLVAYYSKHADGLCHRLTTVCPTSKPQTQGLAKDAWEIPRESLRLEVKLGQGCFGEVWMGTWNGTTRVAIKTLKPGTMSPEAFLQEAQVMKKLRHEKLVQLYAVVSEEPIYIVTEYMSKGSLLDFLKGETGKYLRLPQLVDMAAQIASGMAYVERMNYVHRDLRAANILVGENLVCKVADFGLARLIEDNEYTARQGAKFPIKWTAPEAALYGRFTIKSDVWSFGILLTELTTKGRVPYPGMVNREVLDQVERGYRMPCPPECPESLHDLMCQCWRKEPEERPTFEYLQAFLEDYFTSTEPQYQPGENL
UniProt P06239, whole entry: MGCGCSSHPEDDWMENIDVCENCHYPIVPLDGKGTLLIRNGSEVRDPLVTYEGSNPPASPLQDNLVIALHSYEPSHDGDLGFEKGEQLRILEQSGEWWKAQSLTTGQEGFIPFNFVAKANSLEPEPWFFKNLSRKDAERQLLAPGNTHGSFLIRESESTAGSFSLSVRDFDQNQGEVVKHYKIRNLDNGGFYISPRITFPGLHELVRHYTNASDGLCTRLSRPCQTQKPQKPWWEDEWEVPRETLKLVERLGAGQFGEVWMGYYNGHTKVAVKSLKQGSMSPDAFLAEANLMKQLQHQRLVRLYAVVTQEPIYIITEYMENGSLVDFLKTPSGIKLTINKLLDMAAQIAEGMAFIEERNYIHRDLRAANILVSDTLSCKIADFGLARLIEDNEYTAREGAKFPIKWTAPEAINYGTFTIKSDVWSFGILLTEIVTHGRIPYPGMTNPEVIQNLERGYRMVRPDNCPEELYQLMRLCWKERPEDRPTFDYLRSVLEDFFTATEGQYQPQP
UniProt P08631, whole entry: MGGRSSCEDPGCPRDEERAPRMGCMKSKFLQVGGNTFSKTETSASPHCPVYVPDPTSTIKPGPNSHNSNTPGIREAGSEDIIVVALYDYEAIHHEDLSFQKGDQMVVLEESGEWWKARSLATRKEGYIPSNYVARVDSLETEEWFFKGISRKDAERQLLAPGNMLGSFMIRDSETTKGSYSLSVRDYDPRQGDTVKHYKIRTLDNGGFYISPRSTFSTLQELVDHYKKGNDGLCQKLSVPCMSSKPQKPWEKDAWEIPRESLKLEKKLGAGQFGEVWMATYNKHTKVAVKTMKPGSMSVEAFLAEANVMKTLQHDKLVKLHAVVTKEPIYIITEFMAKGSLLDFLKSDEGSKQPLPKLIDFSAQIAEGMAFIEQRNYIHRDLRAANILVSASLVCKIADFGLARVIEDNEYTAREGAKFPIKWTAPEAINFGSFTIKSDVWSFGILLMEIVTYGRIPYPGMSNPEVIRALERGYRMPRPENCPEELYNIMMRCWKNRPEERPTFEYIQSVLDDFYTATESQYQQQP
UniProt P06241, whole entry: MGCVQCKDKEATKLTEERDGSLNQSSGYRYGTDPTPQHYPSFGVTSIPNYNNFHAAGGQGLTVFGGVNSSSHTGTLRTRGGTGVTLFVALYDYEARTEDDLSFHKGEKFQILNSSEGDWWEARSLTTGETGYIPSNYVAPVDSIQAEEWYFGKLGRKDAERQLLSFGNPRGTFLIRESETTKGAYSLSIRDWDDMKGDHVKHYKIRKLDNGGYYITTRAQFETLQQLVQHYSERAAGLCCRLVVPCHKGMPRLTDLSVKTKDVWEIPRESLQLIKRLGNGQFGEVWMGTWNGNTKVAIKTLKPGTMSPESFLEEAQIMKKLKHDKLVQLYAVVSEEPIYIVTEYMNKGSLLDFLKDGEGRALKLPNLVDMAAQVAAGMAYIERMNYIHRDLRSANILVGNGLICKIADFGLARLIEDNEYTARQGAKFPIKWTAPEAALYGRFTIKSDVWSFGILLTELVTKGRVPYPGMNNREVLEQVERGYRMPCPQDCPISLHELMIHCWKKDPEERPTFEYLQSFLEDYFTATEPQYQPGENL
UniProt Q7L7X3, whole entry: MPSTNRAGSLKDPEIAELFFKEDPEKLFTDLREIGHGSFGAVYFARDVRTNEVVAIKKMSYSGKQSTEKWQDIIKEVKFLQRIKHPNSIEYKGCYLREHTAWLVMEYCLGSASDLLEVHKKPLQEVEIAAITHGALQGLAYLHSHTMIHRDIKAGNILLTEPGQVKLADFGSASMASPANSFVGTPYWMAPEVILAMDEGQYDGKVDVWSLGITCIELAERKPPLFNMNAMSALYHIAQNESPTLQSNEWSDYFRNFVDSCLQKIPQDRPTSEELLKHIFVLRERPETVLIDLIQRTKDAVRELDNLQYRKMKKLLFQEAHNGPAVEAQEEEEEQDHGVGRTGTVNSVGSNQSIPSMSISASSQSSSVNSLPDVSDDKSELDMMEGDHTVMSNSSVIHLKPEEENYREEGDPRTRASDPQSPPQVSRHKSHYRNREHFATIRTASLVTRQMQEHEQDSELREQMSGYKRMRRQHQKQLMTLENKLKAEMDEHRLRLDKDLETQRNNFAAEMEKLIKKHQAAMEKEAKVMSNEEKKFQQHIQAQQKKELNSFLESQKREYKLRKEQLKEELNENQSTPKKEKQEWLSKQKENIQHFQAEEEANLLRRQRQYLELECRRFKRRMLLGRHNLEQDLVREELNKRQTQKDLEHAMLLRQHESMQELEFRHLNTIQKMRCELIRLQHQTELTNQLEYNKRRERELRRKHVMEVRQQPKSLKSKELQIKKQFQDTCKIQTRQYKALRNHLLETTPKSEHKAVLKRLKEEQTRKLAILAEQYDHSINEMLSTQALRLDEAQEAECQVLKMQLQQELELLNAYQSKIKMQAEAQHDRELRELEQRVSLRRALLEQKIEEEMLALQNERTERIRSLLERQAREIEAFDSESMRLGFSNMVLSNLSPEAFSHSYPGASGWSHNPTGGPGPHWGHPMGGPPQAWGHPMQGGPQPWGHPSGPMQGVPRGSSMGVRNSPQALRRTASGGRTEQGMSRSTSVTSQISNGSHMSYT

CCN1CCN(Cc2ccc(NC(=O)c3ccc(C)c(Oc4ncnc5cc(OC)c(OC)cc45)c3)cc2C(F)(F)F)CC1
microsome stability (T1/2, min) [1]: 52 min | microsome stability (T1/2, min) [2]: 61.4 min | microsome stability (T1/2, min) [3]: (rat); >120 (human) min | IC50 [4]: 23.8 nM | IC50 [5]: 164 nM | IC50 [6]: 55 nM | IC50 [7]: 62.6 nM | IC50 [8]: 73.6 nM | IC50 [9]: 117 nM | IC50 [10]: 13.4 nM | IC50 [11]: 16.6 nM | IC50 [12]: 734 nM | IC50 [13]: 238 nM | IC50 [14]: 619 nM | IC50 [15]: 314 nM
